Reference: patent publication US20110053163A1, “Biomarker” (BIOVATOR TECHNOLOGIES AB, priority 2007, published 2011)

How the values were obtained:
Assay type in all cases: cell-based, human
THP-1 cells = assay: CPA: neopterin production by stimulated THP-1 cells; details: RPMI+10% FCS, 24 hrs, different concentrations
Protocol: (§1) The instructions of the manufacturers were followed. All these tests are enzyme immunoassays (EIA:s). The principle is that microtiter plate wells are labelled with a cytokine specific capture antibody. If cytokine is present in the samples added to the wells it will be captured to the bottom of the well. To quantify how much cytokine that has been captured a second antibody, labelled with an enzyme is added to the wells. The reaction is thereafter measured as colour developed after addition of a substrate for the enzyme. The values for the test wells are compared with a standard curve obtained by adding a series of known amounts of cytokine. The values obtained for control wells with no substance added are used as background values for cytokine levels. […]
(§2) The cells were split approximately 1:3 the day before stimulation. […] The number of cells was then determined by trypan blue exclusion and the cells were diluted to twice the final test concentration (2×10^6 cells/mL) if not otherwise indicated and 100 μl of cell suspension was added per well in 96 well tissue culture plates (Corning). […] The cell suspension was transferred to new cell culture plates and stored at −20° C. until analyzed. Thereafter the cell suspension was analyzed for presence of neopterin and IL-10 by ELISA (IBL-Hamburg) following the manufacturers instructions.

MM6-cells = assay: CPA: IL-10 levels of stimulated MM6 cells, ELISA; details: 25-200 μg/ml; 48 hours; with IFN-γ 100 U/ml
Protocol: as §1, §2

MonoMac-6 cells = assay: Cytokine Profile Assay (CPA): neopterin production by stimulated MonoMac-6 cells, ELISA; details: for Neopterin, Mean of mean: with IFN-γ, 6.6 μg/ml, mean of triplicate means over experiments
Protocol: The instructions of the manufacturers were followed. All these tests are enzyme immunoassays (EIA:s). The principle is that microtiter plate wells are labelled with a cytokine specific capture antibody. If cytokine is present in the samples added to the wells it will be captured to the bottom of the well. To quantify how much cytokine that has been captured a second antibody, labelled with an enzyme is added to the wells. The reaction is thereafter measured as colour developed after addition of a substrate for the enzyme. The values for the test wells are compared with a standard curve obtained by adding a series of known amounts of cytokine. The values obtained for control wells with no substance added are used as background values for cytokine levels.
The myelomonocytic cell line MonoMac-6 (obtained from DSMZ, accession number ACC 124, Prof. H. W. L. Ziegler-Heitbrock, Inst. For Immunology, University of Munich, Munich) was cultured in cell culture flasks (Corning). Cells were cultured in RPMI 1640 medium (Gibco BRL), containing 20 mM HEPES and L-glutamine and supplemented with 10% heat-inactivated foetal bovine serum (Gibco BRL), penicillin (100 U/mL; Sigma-Aldrich), streptomycin (100 μg/mL; Sigma-Aldrich), sodium pyruvate (1.0 mM;Gibco BRL), human insulin (9 μg/mL; Gibco BRL) and non-essential amino acids (Gibco BRL) or cultured in Panserin 411 (Pan Biotech) supplemented with penicillin (100 U/mL), streptomycin (100 μg/mL).
The cells were split approximately 1:3 the day before stimulation. The stimulation procedure was performed in three steps. The first step was pre-dilution of test substances, to double the final concentration, in cell culture medium. Furthermore, Interferon-γ (IFN-γ) (100 U, PreproTech) was added in the cell culture media for 24 or 48 hours during stimulation of cells with test substances. The number of cells was then determined by trypan blue exclusion and the cells were diluted to twice the final test concentration (2×10^6 cells/mL) if not otherwise indicated and 100 μl of cell suspension was added per well in 96 well tissue culture plates (Corning). Finally, a 100 μl of pre-diluted test substance (triplicate cultures) was added to the tissue culture plates. On each cell culture plate a protein purified from birch extract (Bet v1; Phadia) was added as positive control and HSA was added as negative control. The stimulated cells were cultured at 37° C., 5% CO2, for 24 or 48 hours. The cell suspension was transferred to new cell culture plates and stored at −20° C. until analyzed. Thereafter the cell suspension was analyzed for presence of neopterin and IL-10 by ELISA (IBL-Hamburg) following the manufacturers instructions.

HSA: human serum albumin, negative control (Sigma Aldrich, CAS No. 70024-90-7)
neopterin response (in words) (THP-1 cells): did not exceed background levels | IL-10 levels (in words) (MM6-cells): did not induce IL-10 above background levels | fold increase in neopterin production in the presence of IFN-γ compared to substance only (MonoMac-6 cells; 2.2-20 μg/ml, IFN-γ 100 U/ml, 24 h, 1×10^6 cells per ml, RPMI+10% FCS): less than 1 fold | Neopterin, Mean of mean (MonoMac-6 cells; RPMI+10% FCS, 24 hrs): 5.0 nmol/L | neopterin response (in words) (MonoMac-6 cells; proteins, RPMI+10% FCS, 24 hrs, with IFN-γ 100 U/ml, over the tested concentrations): did not induce any neopterin production above the background levels | Neopterin, Mean of mean (MonoMac-6 cells; serum free Panserin 411, 24 hrs): 5.4 nmol/L | Neopterin, Mean of mean (MonoMac-6 cells; serum free Panserin 411, 48 hrs): 9.9 nmol/L
